# Binding of CDR-mutated scFvs to a peptide of the spike HR2 region

Data: MIT Lincoln Laboratory AlphaSeq set, Engelhart et al. 2022, doi:10.1038/s41597-022-01779-4, as distributed in FLAb.

Target peptide (SARS-CoV-2 spike, HR2 region): PDVDLGDISGINAS

The variants keep the light chain, the linker and the frameworks of Ab-91 (scFv order VL, a 15-residue (Gly4Ser)3 linker, VH).
VL: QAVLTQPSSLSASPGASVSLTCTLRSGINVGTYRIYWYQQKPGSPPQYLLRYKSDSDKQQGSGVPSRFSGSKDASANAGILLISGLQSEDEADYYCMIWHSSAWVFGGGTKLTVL
VH: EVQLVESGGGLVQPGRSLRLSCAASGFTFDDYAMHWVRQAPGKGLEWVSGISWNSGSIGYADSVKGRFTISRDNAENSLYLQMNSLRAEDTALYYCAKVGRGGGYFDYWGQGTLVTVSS

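The parent was found by panning a naive human phage display library on the peptide. The library (AAYL51) carries one to three amino acid substitutions per variant, with no insertions or deletions. The assay is AlphaSeq: two haploid yeast populations carry antibody and antigen on their surface. Mating (16 h, 30 °C) was followed by selection of diploids and sequencing of their barcodes. The ratio of observed to expected reads was calibrated, replicate by replicate, on BCL2-family standards whose Kd was known from biolayer interferometry. Mating was done three times.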

The parent's heavy chain CDRs are GFTFDDYAMH, GISWNSGSIGYADSVK, VGRGGGYFDY; each variant's own CDRs replace them letter for letter.
All variants listed here change G103 of the VH, counted from its first residue.
Values are apparent Kd, the geometric mean of the replicates that gave a signal; lower means stronger binding.
A pair that was not seen in any replicate is written "not detected"; this usually means weak binding, but a binder can also be missed.
The list is sorted by this average, lowest first, undetected variants last.
Nonspecific signal, from three strains lacking the peptide, appeared in 21% of pairings of library AAYL51, centred on 34 µM (5% of these signals below 1.8 µM); values are not corrected for it. For each scFv, signals with the empty controls are counted beside the result.

| CDR-H1 | CDR-H2 | CDR-H3 | Kd | detected | signal with controls |
|---|---|---|---|---|---|
| GFTFDDYAMH | GISWNSGSKGYADSVK | QGRGCGYFDY | 11 nM | 3 of 3 | 8 of 9 |
| GFTFWDYAMH | GISWNSGSIGYADSVK | VGRGAGYFVY | 120 nM | 3 of 3 | 1 of 9 |
| GFTFDDYAMH | GISWNSGSIGYHDMVK | VGRGSGYFDY | 180 nM | 2 of 3 | 0 of 9 |
| GFTFDDYAMH | GISWNSGSIGYADSVK | VGSGEGYFDY | 210 nM | 3 of 3 | 1 of 9 |
| GFTFDYSAMH | GISWNSGSIGYADSVK | VGRGPGYFDY | 240 nM | 3 of 3 | 0 of 9 |
| GFTFDDYAMH | GISWNSGSIGYADSVK | VGRGMGYHDY | 280 nM | 3 of 3 | 5 of 9 |
| GFTFDDYAMH | GISWNSGSIGYADSRK | VGRGKGYSDY | 1.5 µM | 1 of 3 | 1 of 9 |
| GFTFDDYAMH | GISWNSTSIGYADSVL | VGRGIGYFDY | 2.3 µM | 3 of 3 | 1 of 9 |
| GFTFQDYAMC | GISWNSGSIGYADSVK | VGRGIGYFDY | 3.3 µM | 1 of 3 | 0 of 9 |
| GFTFWDYAMH | GISWNSGSTGYADSVK | VGRGSGYFDY | 17 µM | 1 of 3 | 0 of 9 |
| GFTFDDYAMY | GISWNSGSIGYADSVK | VYRGRGYFDY | 18 µM | 1 of 3 | 4 of 9 |
| RFTFDDYAMH | GISWYSGSIGYADSVK | VGRGCGYFDY | 26 µM | 1 of 3 | 1 of 9 |
| GFTFDDYAMH | GPSWNSGSIGYTDSVK | VGRGMGYFDY | 26 µM | 1 of 3 | 2 of 9 |
| GFTFDDYAMH | GISWNSGSIGYAASVR | VGRGRGYFDY | 38 µM | 2 of 3 | 0 of 9 |
| GFTFDDYAMH | GISWNSGSIGYTDSVK | VGRGDGDFDY | 91 µM | 1 of 3 | 1 of 9 |
| GFTGDDYAMH | GIRWNSGSIGYADSVK | VGRGVGYFDY | 94 µM | 1 of 3 | 7 of 9 |
| GFTFDDYAMH | GISWNSGSIGYADSVG | VTRGLGYFDY | 120 µM | 2 of 3 | 3 of 9 |
| GFTFDDYAMH | GWSWNSGSIGYADSVK | VGRGAGNFDY | 120 µM | 1 of 3 | 2 of 9 |
| GFTFDDYKFH | GISWNSGSIGYADSVK | VGRGRGYFDY | 120 µM | 2 of 3 | 2 of 9 |
| GFTFDDYAMH | GISWNSGSIFYADSVK | VGRGQGYFDY | 120 µM | 1 of 3 | 0 of 9 |
| GFTFDDYAMH | GISWNSGSIGYADSVK | VGRGMGYFDY | 150 µM | 1 of 3 | 2 of 9 |
| GFTFDDYAMH | GISVNSGSIGYADSVK | VGRGSMYFDY | 160 µM | 3 of 3 | 3 of 9 |
| GFTFDDYAMH | TISWWSGSIGYADSVK | VGRGAGYFDY | 350 µM | 2 of 3 | 4 of 9 |
| GFTFDDYAMH | GYSWNSGSIGYADSVK | EGRGCGYFDY | 550 µM | 3 of 3 | 3 of 9 |
| GFTFDDYAMH | GISWNQGSIWYADSVK | VGRGDGYFDY | 1.2 mM | 1 of 3 | 2 of 9 |
| RFTFDDYCMH | GISWNSGSIGYADSVK | VGRGWGYFDY | not detected | 0 of 3 | 0 of 9 |
| GFTFDPYAMH | GISWNSGEIGYADSVK | VGRGHGYFDY | not detected | 0 of 3 | 1 of 9 |
| GFTFDDYAMH | GISWNSGSIGYADSVH | VGRGQGYFDI | not detected | 0 of 3 | 1 of 9 |
| GFTFDDYAMH | GISWNSGSIGYADSVK | VGRGCGWGDY | not detected | 0 of 3 | 1 of 9 |
| GFTFDDYAMH | GISMNSESIGYADSVK | VGRGYGYFDY | not detected | 0 of 3 | 0 of 9 |
| GFTFDDYAMH | DISWNSGSIGYADSVK | VGRGYGYFDY | not detected | 0 of 3 | 2 of 9 |
| GFTFDDYAMH | GISNNSGSIGYADSVK | VGRGFGYFDY | not detected | 0 of 3 | 0 of 9 |
| GFTFDDYAMH | GISWNSGSIGYADWVK | VLRGHGYFDY | not detected | 0 of 3 | 2 of 9 |
| PFTFDDRAMH | GISWNSGSIGYADSVK | VGRGYGYFDY | not detected | 0 of 3 | 1 of 9 |
| GFTFDDYAME | GISWNSGSIGYADSVK | VGRGFGYFDK | not detected | 0 of 3 | 0 of 9 |
| GFTFDDYAMH | GISWNSGSIGYADSVK | MGRGWGYFDY | not detected | 0 of 3 | 1 of 9 |
| QFTFDDYAMH | GISWNSGSIGYADSVK | VGRGNGYFDY | not detected | 0 of 3 | 2 of 9 |
| GRTFIDYAMH | GISWNSGSIGYADSVK | VGRGRGYFDY | not detected | 0 of 3 | 1 of 9 |
| GFTFDDYAMY | GISWNSGSIGYADSVK | VGRGMGYFDQ | not detected | 0 of 3 | 0 of 9 |
| GFTFDDYAMH | GISWNSGSIWYADSVK | HGRGWGYFDY | not detected | 0 of 3 | 1 of 9 |
| NFTFDDYAMH | GISWNSGSSGYADSVK | VGRGEGYFDY | not detected | 0 of 3 | 0 of 9 |
| GFTFDDYAMH | GISFNSGSIGYADQVK | VGRGSGYFDY | not detected | 0 of 3 | 0 of 9 |
| GITFDDYAMH | GIIWNSGSIGYADSVK | VGRGKGYFDY | not detected | 0 of 3 | 3 of 9 |
| GFTFDDYAMP | GISWNSGSIGYADSVK | VGRGVGYFRY | not detected | 0 of 3 | 0 of 9 |
| GFTFDDYASH | GISWNSGSIGYADSVK | VGRGPGAFDY | not detected | 0 of 3 | 1 of 9 |
| GFTFNDYAMH | GISWNSGSIGYADSVK | VGRGLVYFDY | not detected | 0 of 3 | 0 of 9 |
| GFTFDDYAMH | GICWNSGSIGYADSVK | VGRGYGYFWY | not detected | 0 of 3 | 0 of 9 |
| GFTFDDYAMT | GISWNSGSIGYADSVK | LGRGEGYFDY | not detected | 0 of 3 | 3 of 9 |

The closing 7 entries, repeated:

CDR-H1	CDR-H2	CDR-H3	Kd	detected	signal with controls
GFTFDDYAMH	GISFNSGSIGYADQVK	VGRGSGYFDY	not detected	0 of 3	0 of 9
GITFDDYAMH	GIIWNSGSIGYADSVK	VGRGKGYFDY	not detected	0 of 3	3 of 9
GFTFDDYAMP	GISWNSGSIGYADSVK	VGRGVGYFRY	not detected	0 of 3	0 of 9
GFTFDDYASH	GISWNSGSIGYADSVK	VGRGPGAFDY	not detected	0 of 3	1 of 9
GFTFNDYAMH	GISWNSGSIGYADSVK	VGRGLVYFDY	not detected	0 of 3	0 of 9
GFTFDDYAMH	GICWNSGSIGYADSVK	VGRGYGYFWY	not detected	0 of 3	0 of 9
GFTFDDYAMT	GISWNSGSIGYADSVK	LGRGEGYFDY	not detected	0 of 3	3 of 9

Parent in this assay: reference entry 72 nM, copy in this library 7.5 nM.